Data published in PubChem BioAssay AID1947 (The Scripps Research Institute Molecular Screening Center, 2009).
Only a part is listed here, and it is no random draw. The source made the active and inactive calls.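 Rule for the calls: active = inhibition above the screen mean inhibition plus 3 SD, computed separately per campaign (cut at about 18% in these data); inactive = the rest.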

The compounds below were run on Fam108B (ABHD17B) serine hydrolase [Mus musculus] (assay: mouse Fam108B serine hydrolase inhibitors, primary screen, counter-screen for RBBP9 inhibitor project, biochemical, fluorescence polarization (AID 1947;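 note: inhibitors lower polarization as less probe binds the enzyme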)). Conditions: recombinant Fam108B, FP-Rh probe fluorescence polarization; at 9.51 µM; stronger effect = higher value.

| Compound | inhibition |
| --- | --- |
| O=[N+]([O-])c1cc([N+](=O)[O-])c(-c2ccn[nH]2)s1 | inactive: 1.29% |
| ClCCSc1nnc(-c2cccnc2)o1 | inactive: -1.62% |
| CC(C)c1ccc(OP(=O)(Nc2ccccn2)Oc2ccccc2F)cc1 (stereo not drawn) | inactive: 1.4% |
| Cc1ccc(OP(=O)(Nc2ccc([N+](=O)[O-])cn2)Oc2ccc(C)cc2)cc1 | inactive: -2.32% |
| Cc1ccc2nc3c(c(C)c2c1)CC(C(Cl)Cl)S3 (stereo not drawn) | inactive: -0.04% |
| C[As](=O)(O)c1cccc(C(=O)O)c1 | inactive: 4.9% |
| O=[As](O)(c1ccc(O)cc1)c1ccccc1O | inactive: 1.42% |
| CCN(N=Nc1nonc1N)c1nonc1N | inactive: 0.74% |
| O=[N+]([O-])c1cc([N+](=O)[O-])c(CCN2CCOCC2)c([N+](=O)[O-])c1 | active: 35.1% |
| Cc1cc(SC(NC(=O)c2ccc(F)cc2)C(Cl)(Cl)Cl)ncn1 (stereo not drawn) | inactive: -1.13% |
| CCOP(=O)(Nc1ccccc1)OCC | inactive: -0.53% |
| Cc1ccc(NP(=O)(Oc2ccccc2F)Oc2ccccc2F)nc1 | inactive: 0.84% |
| CN(C(=O)Cc1ccc(Cl)c(Cl)c1)[C@H]1CCCC[C@@H]1N1CCCC1 | inactive: 6.91% |
| O=P(Nc1nc2ccc(Cl)cc2s1)(c1ccccc1)c1ccccc1 | inactive: -1.73% |
| CC(=O)Nc1ccc([As](=O)(O)O)cc1 | inactive: 0.07% |
| O=C(O)c1ccccc1[As](=O)(O)O | inactive: -0.44% |
| Oc1ccccc1CNc1ccccn1 | inactive: 3.75% |
| O=C(NC(Sc1ccncn1)C(Cl)(Cl)Cl)c1ccccc1 (stereo not drawn) | inactive: -0.18% |
| Cc1c2non([O-])c-2c(C)[n+](=O)[n+]1[O-] | inactive: 3.2% |
| Nc1cc(N)c2nonc2c1[N+](=O)[O-] | inactive: -3.3% |
| CC(C)CC(=O)NC(Sc1ccc(Cl)cc1)C(Cl)(Cl)Cl (stereo not drawn) | inactive: 2.98% |
| CN1CCCC(OC(=O)C(c2ccccc2)c2ccccc2)C1 (stereo not drawn) | inactive: -1.59% |
| Clc1ccc(Cl)c(NC2=NCC(CBr)S2)c1 (stereo not drawn) | inactive: 0.47% |
| COc1ccccc1OP(=O)(Nc1ccc(C)cn1)Oc1ccccc1OC | inactive: 4.89% |
| Cc1ccc(OP(=O)(Nc2nccs2)Oc2ccc(C)cc2)cc1 | inactive: 4.63% |
| CN(C(=O)Cc1ccc(Cl)c(Cl)c1)[C@H]1CCCC[C@H]1N1CCCC1 | inactive: -3.73% |

| Compound | inhibition |
| --- | --- |
| Cc1ccc(N/C(=N/P(=O)(N2CCOCC2)N2CCOCC2)N2CCOCC2)cc1 | inactive: -0.13% |
| NC(=O)c1cc([N+](=O)[O-])cc([N+](=O)[O-])c1N | inactive: 3.42% |
| CC1CCN(C(=O)Oc2c(Cl)cc(Cl)c3cccnc23)CC1 | inactive: -0.79% |
| CC(C)=N/N=C(\N)N[N+](=O)[O-] | inactive: 0.41% |
| CN(C)C(=O)OCCc1n(C)cc[n+]1C | inactive: 3.46% |
| CCN(/C(=N/P(=O)(N1CCOCC1)N1CCOCC1)N1CCOCC1)c1ccc(OC)cc1 | inactive: -0.7% |
| Nc1ccc([As](=O)(O)c2ccc(N)cc2)cc1 | inactive: 1.61% |
| C[N+]1=C2C=CC=CC=C2SC12C([N+](=O)[O-])=CC([N+](=O)[O-])=C[C-]2[N+](=O)[O-] (stereo not drawn) | active: 18.4% |
| Cc1ccc(NP(=O)(Oc2ccccc2)Oc2ccccc2)nc1 | inactive: -1.72% |
| CCc1nc2c(n1)c1c(non1O)c1c2no[n+]1[O-] | inactive: 6.68% |
| O=[N+]([O-])c1cc([N+](=O)[O-])c(CCNc2ccccc2)c([N+](=O)[O-])c1 | inactive: 15.6% |
| O=[N+]([O-])c1cccc2n[nH]nc12 | inactive: -1.22% |
| CC(=O)N1C2C3N(C(C)=O)C1C1N(C(C)=O)C(C(N1C(C)=O)N3C(C)=O)N2C(C)=O | inactive: 4.84% |
| COc1ccc(C2=NCC(CBr)S2)cc1 (stereo not drawn) | inactive: 4.06% |
| O=[N+]([O-])c1cccc(NC2=NCC(CBr)S2)c1 (stereo not drawn) | inactive: 4.11% |
| O=[N+]([O-])c1ncn(CCn2ncnc2[N+](=O)[O-])n1 | inactive: -3.9% |
| CC(C)(C)C(=O)NC(Sc1ccncn1)C(Cl)(Cl)Cl (stereo not drawn) | inactive: 0.72% |
| O=C(Nc1cc([As](=O)(O)O)ccc1O)c1ccccc1 | inactive: -0.56% |
| O=C(OC1CN2CCC1CC2)c1cccc(Cl)c1 (stereo not drawn) | inactive: -0.24% |
| C(Cc1nn[nH]n1)Cc1nn[nH]n1 | inactive: -0.29% |
| Nc1ccc([As](=O)(O)c2ccc([N+](=O)[O-])cc2)cc1 | inactive: -1.55% |
| O=[As](O)(c1ccccc1)c1ccc(O)cc1 | inactive: 1.44% |
| O=[N+]([O-])c1ccc(O)c(/C=N/Nc2ccc([N+](=O)[O-])cc2[N+](=O)[O-])c1 | inactive: 2.69% |
| CC(=O)NC(SC(=S)N(C)C)C(Cl)(Cl)Cl (stereo not drawn) | inactive: 1.59% |
| O=[N+]([O-])c1ncn(CCn2cnc([N+](=O)[O-])n2)n1 | inactive: 3.85% |
| O=P(Nc1nc2ccccc2s1)(c1ccccc1)c1ccccc1 | inactive: -0.97% |

| Compound | inhibition |
| --- | --- |
| C[C@H]1OP(=O)(Oc2ccccc2)[C@H](O)[C@H](O)[C@H]1N=[N+]=[N-] (stereo partly drawn) | inactive: 0.17% |
| O=P(Nc1ccccn1)(c1ccc(Br)cc1)c1ccc(Br)cc1 | inactive: 0.56% |
| CN(C)C1(CNC(=O)c2ccc(Cl)c(S(N)(=O)=O)c2)CCCCC1 | inactive: -4.59% |
| c1nnnn1CCn1cnnn1 | inactive: 0.74% |
| CC(C)C(=O)NC(Sc1ccccc1)C(Cl)(Cl)Cl (stereo not drawn) | inactive: 4.35% |
| O=P(Nc1nccs1)(c1ccccc1)c1ccccc1 | inactive: -1.36% |
| CC(=O)Nc1ccc([As](=O)(O)O)c(O)c1 | inactive: -0.6% |
| CC(=O)Nc1ccc(Oc2c([N+](=O)[O-])cc([N+](=O)[O-])cc2[N+](=O)[O-])cc1 | inactive: 3.45% |
| C[C@H]1OP(=O)(Oc2ccccc2)C[C@@H]2O[C@@H]21 (stereo partly drawn) | inactive: 5.01% |
| C[C@@H]1C=CCP(=O)(Oc2ccccc2)O1 (stereo partly drawn) | inactive: -2.68% |
| CC(=O)c1ccc(N2CC2c2ccncc2)cc1 (stereo not drawn) | inactive: -6.55% |
| CC(C)(C)C(=O)NC(Sc1ccccc1)C(Cl)(Cl)Cl (stereo not drawn) | inactive: -1.65% |
| O=P1(Nc2nc3ccc(Cl)cc3s2)COc2ccccc2O1 (stereo not drawn) | inactive: 3.47% |
| CCOc1ccc(C2=NCC(CBr)S2)cc1 (stereo not drawn) | inactive: 3.5% |
| Cc1ccccc1OP(=O)(Nc1ccccn1)Oc1ccccc1C | inactive: -5.75% |
| CN(C)C(=O)Oc1noc2ccccc12 | inactive: -0.13% |
| O=C(OC1CN2CCC1CC2)c1ccccc1 (stereo not drawn) | inactive: -3.75% |
| CCC(=O)N1C2C3N(C(=O)CC)C1C1N(C(=O)CC)C(C(N1C(=O)CC)N3C(=O)CC)N2C(=O)CC | inactive: -1.53% |
| COC(=O)c1cc2c(s1)N=C(c1ccccc1)N(C)P2(=O)N1CCOCC1 (stereo not drawn) | inactive: 2.09% |
| CC(=O)NC(SC(=S)N(CC(C)C)CC(C)C)C(Cl)(Cl)Cl (stereo not drawn) | inactive: -2.96% |
| Cc1ccc(OP(=O)(Nc2ccccn2)Oc2ccc(C)cc2)cc1 | inactive: -1.16% |
| c1ccc(-c2nn[nH]n2)c(-c2nn[nH]n2)c1 | inactive: 4.5% |
| Cc1ccc(NP(=O)(Oc2cccc(C)c2)Oc2cccc(C)c2)nc1 | inactive: 3.97% |
| CCOC(=O)NC(Sc1ccccc1)C(Cl)(Cl)Cl (stereo not drawn) | inactive: 1.69% |
| CCNC(=S)/N=C(\N)N[N+](=O)[O-] | inactive: 1.64% |
| O=C(NC1CCS(=O)(=O)C1)NP(=S)(Oc1ccccc1)Oc1ccccc1 (stereo not drawn) | inactive: 0.99% |
